# Laboratory results published in US8129340B2, “Inhibitors of protein phosphatase 1, GADD34 and protein phosphatase 1/GADD34 complex, preparation and uses thereof” (Institut Gustave Roussy, priority 2006, dated 2012).
# System: CRT and/or ERp57
# Assay: Immunofluorescence staining of unfixed human tumour cell lines for surface CRT and/or ERp57
row,SMILES,exposure of CRT and/or ERp57 on the surface of human tumour cell lines
1,COc1cccc2c1C(=O)c1c(O)c3c(c(O)c1C2=O)C[C@@](O)(C(C)=O)C[C@@H]3O[C@H]1C[C@H](N)[C@H](O)[C@H](C)O1 [daunorubicin],Very similar results
2,COc1cccc2c1C(=O)c1c(O)c3c(c(O)c1C2=O)C[C@@](O)(C(=O)CO)C[C@@H]3O[C@H]1C[C@H](N)[C@H](O)[C@H](C)O1 [doxorubicin],Very similar results
3,CC(=O)[C@]1(O)Cc2c(O)c3c(c(O)c2[C@@H](O[C@H]2C[C@H](N)[C@H](O)[C@H](C)O2)C1)C(=O)c1ccccc1C3=O [idarubicin],Very similar results
4,O=C1c2c(O)ccc(O)c2C(=O)c2c(NCCNCCO)ccc(NCCNCCO)c21 [mitoxantrone],expose CRT and/or ERp57 on the surface of their cells
